From PMC3738572, “Improved Bone Morphogenetic Protein-2 Retention in an Injectable Collagen Matrix Using Bifunctional Peptides” (PLoS ONE, 2013) come the findings set out here.

In assay [1] the target is T1, rhBMP-2 binding to injectable collagen gel (Homo sapiens, UniProt P12643).
T1 construct: purchased R&D Systems 355-BM/CF
T1 sequence (P12643 283-396): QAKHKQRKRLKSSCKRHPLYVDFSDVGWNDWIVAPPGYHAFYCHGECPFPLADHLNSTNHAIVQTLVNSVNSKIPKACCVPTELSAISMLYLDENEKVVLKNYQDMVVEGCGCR
Nature of the assay: Injectable collagen gel binding assay. As to conditions: no peptide; rhBMP-2 0.0017 to 100 nM, 1 h on collagen gel at RT; anti-BMP antibody, p-NPP, 405 nm. The method, then:
The injectable collagen gel (0.1 mL) was aliquoted into a polypropylene plate. The plate was blocked with 150 µl of 1% BSA in TBS for 30 min. After spinning for 2 min, the supernatant was removed without disrupting the collagen gel. The bifunctional peptide (30 μM) was mixed with rhBMP-2 (0.0017 to100 nM) in Binding Buffer (125 mM glutamic acid, 10% sucrose, 12.5% glycine, 10% polysorbate 80, 5 M NaCl) for 30 min with gentle agitation. The peptide: rhBMP-2 complex (50 μL) was then added to the collagen gel and incubated at room temperature for 1 h with gentle agitation. The collagen gel was washed three times with TBST and rhBMP-2 was detected with an anti-BMP antibody (R&D Systems MAB3552). The wells were then washed, and an alkaline phosphatase labeled goat anti-mouse secondary antibody was added. After incubation and washing, binding was measured using the chromogenic reagent p-NPP, and absorbance was read at 405 nm.

The next assay concerns ectopic bone formation. Nature of the assay: In vivo ectopic bone formation study. Also on record: species or system rat. How it is done: The stock fibrillar collagen (4%) was diluted in PBS containing rhBMP-2 with or without the collagen-BMP bifunctional peptide, to generate a final collagen wt% of 1.5%. The amount of BMP-2 and peptide were optimized using pilot experiments in vivo such that 200 µl of the injected collagen gel contained 2 µg of BMP-2 and a 50-fold molar excess of the peptide.
Male Sprague Dawley rats (150–175 g) were obtained from […], Charles River Laboratories (Raleigh, NC) and acclimated prior to surgery. The surgery was performed under general anesthesia by weight-adapted intraperitoneal injection of Xylazine 2% (Medistar; 12 mg/kg body weight) and Ketamine hydrochloride (Ketaset; 100 mg/mL; 80 mg/kg body weight). The thorax and abdomen were shaved and scrubbed with Betadine and alcohol. Using aseptic technique, two 5 mm incisions were made at the midline so that two subcutaneous pouches were prepared by blunt dissection. Collagen gel (200 µl) containing 2 µg rhBMP-2 with or without collagen-BMP bifunctional peptide (BC-1) was injected into the left or the right side of the subcutaneous region. Each rat received two injections and a total of 20 animals were used in the study. The BMP-2 dose (2 μg) used in this experiment had been determined from preliminary experiments (data not shown). In those experiments, rats were implanted with collagen gel containing either 1 or 5 μg of BMP-2.
The sites containing the injected material were explanted at two weeks and fixed in 10% neutral buffered formalin. The samples were placed in Formical 2000 decalcifier (American Mastertech) for 24 hours followed by Cal-arrest neutralizing solution for one hour. The tissue samples were processed in a Thermo-Electron, Shandon Excelsior Automated Tissue Processor for 14 hours. The process includes additional fixation in 10% buffered neutral formalin, dehydration through an ethanol gradient, and clearing with xylene at 40°C. Tissue was then embedded on a Leica EF 1140 H tissue embedding center in paraffin blocks for sectioning. Paraffin blocks were sectioned at 5 microns on a Reichert-Jung RM2065 microtome using Accu-Edge High Profile disposable stainless steel microtome blades. Three serial sections at intervals of 30 microns were obtained and placed on Super-frost Plus slides for hematoxylin and eosin staining (H&E). Staining was performed using a Sakura DRS-601 automatic slide stainer with a regressive Harris hematoxylin and Eosin Y Alcoholic for histological and morphological examination.
Histological sections were scored based on three criteria: Bone Cross-Sectional Area, Bone Maturity and Cellular Activity. Each segment was scored based on a 0–4 point scale by two observers (blinded to the study) who evaluated the entire implant under 10× magnification.

The mark [2] stands for this setting: individual samples, one table row per sample, average of two blinded observers, rat subcutaneous, 200 µl 1.5% collagen gel, 2 µg rhBMP-2, 2 weeks, H&E, scale 0–4.
The mark [3] stands for this setting: rat ectopic model, 2 µg rhBMP-2 in collagen gel, 2 weeks.

“And” between values parts separate entries of the source, which are not always exact repeats. Identical values can stand only once.

In turn, “rhBMP-2: recombinant human Bone Morphogenetic Protein-2; R&D Systems 355-BM/CF in vitro, INFUSE (Medtronic) in vivo” had an EC50 in assay [1] of 5.5 nM. In addition, in the assay on ectopic bone formation (setting [2]), the “Bone area, histology score” value is 0.0 and 1.1 (1–10% of Implant Shows Evidence of Bone Formation); the “Bone maturity, histology score” value is 0.0 and 1.0; the “Osteogenic Cellular activity, histology score” value was 0.5 and 1.8 and 1.5 and 0.8 and 1.3. In the assay with ectopic bone formation (setting [3]), the “Maturity of the newly formed bone (in words)” value was “immature/unorganized” and the “Part of the implant covered with new bone” value is given as “no new bone was detected”. Besides, the “Bone formation in preliminary experiments” value in the assay with ectopic bone formation (rats implanted with collagen gel containing 1 or 5 μg of BMP-2, with or without peptide, data not shown) is given as “bone formation at the 5 μg dose but not at the 1 μg dose”.
